# According to patent publication US20080070867A1, “2-Imidazolone and 2-Imidazolidinone Heterocyclic Inhibitors of Tyrosine Phosphatases” (Metabasis Therapeutics, Inc., priority 2005, published 2008):
# Chains of the proteins cited; added tags and fusions are not shown. Residues count along the entry.
# UniProt P18031, 1-321 limits assumed: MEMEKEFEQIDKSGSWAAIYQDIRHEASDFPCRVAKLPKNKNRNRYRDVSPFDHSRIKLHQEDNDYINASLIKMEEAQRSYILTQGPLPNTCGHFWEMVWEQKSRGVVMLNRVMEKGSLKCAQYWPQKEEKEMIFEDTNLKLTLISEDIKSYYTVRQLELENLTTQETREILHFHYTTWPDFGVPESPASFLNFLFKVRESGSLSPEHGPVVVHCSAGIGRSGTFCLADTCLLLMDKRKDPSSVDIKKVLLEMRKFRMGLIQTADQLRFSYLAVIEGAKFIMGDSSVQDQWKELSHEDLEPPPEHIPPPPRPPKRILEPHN
# Molecular target: Human recombinant PTP-1B (Homo sapiens, UniProt P18031)
# Assay: Assay for PTP-1B Activity (pNPP substrate)
# Details: read-out: Activity Code (IC50 range); human recombinant PTP-1B (1-321) GST fusion, 2 mM pNPP, pH 7.4, 30° C., 20 min
# Description: The activity of the compounds as modulators of protein tyrosine phosphatase, including PTP-1B, may be measured in standard assays (see, e.g., Examples 41 and 42). Briefly, the assay described herein employs human recombinant PTP-1B and a pNPP substrate in a rescue assay.
# Assay for PTP-1B Activity
# Enzyme: Human recombinant PTP-1B, containing amino acids 1-321, fused to GST enzyme (glutathione S-transferase) purified by affinity chromatography (Huyer et al, 1997, J. Biol. Chem., 272, 843-852).
# pNPP: p-Nitrophenyl Phosphate (Calbiochem)
# Assay Buffer: 50 mM HEPES (pH 7.4), 100 mM NaCl, 2 mM EDTA, 3 mM DTT
# (5×) pNPP substrate: 10 mM pNPP in assay buffer
# Enzyme: 1 mg/ml PTP1B (1-321), dilute 1:200 in assay buffer
# Assay buffer: 50 mM HEPES (pH 7.4), 100 mM NaCl, 2 mM EDTA, 3 mM DTT
# Enzyme dilution buffer: 50 mM HEPES (pH 7.4), 100 mM NaCl, 2 mM EDTA, 3 mM DTT
# Substrate 198 mM p-Nitrophenyl Phosphate (pNPP) store at 4° C.
# The assay was carried out at 30° C. in 96 well plates. The reaction mixture in 60 ul contained 50 mM HEPES (pH 7.4), 100 mM NaCl, 2 mM EDTA, 3 mM DTT, and 2 mM p-Nitrophenyl Phosphate (pNPP). 5 ul of the test compound (inhibitor) dissolved in DMSO or DMSO alone for control was added to each well and the plate was mixed for 2 min. […] The phosphatase activity was detected by using Victor II plate reader (Wallac) with absorbance detection at 405 nm. […]
structure (smiles),measurement,value
O=C(O)c1ccc(-c2cn(-c3ccccc3)c(=O)n2Cc2ccc(C(F)(F)P(=O)(O)O)c(Br)c2)cc1,IC50,250 to 2500 nM
